This assay concerns the target MST1 (Homo sapiens (Human), UniProt Q13043). The experiment in a line: MST1 biochemical LanthaScreen Eu Kinase Binding Assay. Particulars: read-out: Kinase Binding assay-MST1 IC50.

By UniProt entry, the sequences of proteins in these tests, tags left out.
UniProt Q13043, whole entry: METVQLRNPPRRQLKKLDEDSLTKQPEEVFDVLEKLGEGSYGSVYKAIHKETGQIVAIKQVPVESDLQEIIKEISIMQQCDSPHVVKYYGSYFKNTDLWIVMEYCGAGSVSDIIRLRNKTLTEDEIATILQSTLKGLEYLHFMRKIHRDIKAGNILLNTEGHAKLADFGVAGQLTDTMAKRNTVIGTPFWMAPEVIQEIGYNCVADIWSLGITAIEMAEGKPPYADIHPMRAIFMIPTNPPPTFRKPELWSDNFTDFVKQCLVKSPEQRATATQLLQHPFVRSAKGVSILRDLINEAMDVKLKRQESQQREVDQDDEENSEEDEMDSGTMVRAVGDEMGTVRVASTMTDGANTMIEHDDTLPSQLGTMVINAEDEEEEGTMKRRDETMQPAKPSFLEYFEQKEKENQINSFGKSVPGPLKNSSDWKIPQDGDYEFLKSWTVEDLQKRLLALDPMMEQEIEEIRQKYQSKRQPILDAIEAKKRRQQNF

For the molecule `CCOc1cc2ncc(C#N)c(Nc3ccc(OCCN4CCc5ccccc5C4)c(Cl)c3)c2cc1NC(=O)CCCN(C)C`, the half-maximal inhibitory concentration (IC50) fell in the range of 100 to 1000 nM.

By IC50 is commonly meant the midpoint of a concentration-inhibition curve.

Values taken from patent US10774068B2, “Composition and methods for inhibiting mammalian sterile 20-like kinase 1” (The Scripps Research Institute, priority 2015, dated 2020).
